The list shows a part of the results, in another mix than the full data. Activity calls are given as the source filed them. Cut-off read from the data, not from the text of the source: active = inhibition mostly above about 23% (no sharp cut-off); inactive = mostly below about 18%.

Amino acid sequences for entries named in this document (tags omitted).
UniProt P47898, whole entry, looked up: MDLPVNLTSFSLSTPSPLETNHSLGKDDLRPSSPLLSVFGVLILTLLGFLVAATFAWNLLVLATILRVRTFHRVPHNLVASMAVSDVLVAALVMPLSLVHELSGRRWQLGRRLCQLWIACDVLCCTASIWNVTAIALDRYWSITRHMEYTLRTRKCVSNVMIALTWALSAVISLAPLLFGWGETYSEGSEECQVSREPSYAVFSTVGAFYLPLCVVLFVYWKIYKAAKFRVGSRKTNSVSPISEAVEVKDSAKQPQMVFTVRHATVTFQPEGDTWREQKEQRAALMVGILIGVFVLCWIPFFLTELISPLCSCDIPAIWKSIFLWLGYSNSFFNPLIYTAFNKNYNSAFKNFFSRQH

The assay concerns the target 5-hydroxytryptamine receptor 5A (Homo sapiens) (UniProt P47898). The experiment in a line: HTR5A inverse agonists in luminescence cell assay, primary screen, counter-screen for OPRM1-OPRD1 heterodimer inverse agonist project, full-deck HTS (AID 504634).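 Note: 0% = cells with DMSO and 100% = no-cell wells with DMSO.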 Conditions: HTR5A cell line, inverse agonism, at 9.3 µM, active compounds read high.
Regarding `Cc1ccc2c(c1)C1CN(C)CCC1N2C(=O)c1cccc(S(=O)(=O)N(C)C)c1` (configuration not stated), the inhibition was inactive: -18.4%.
The same measure for `O=C1CC(N2CCC(n3c(=O)[nH]c4ccccc43)CC2)C(=O)N1Cc1ccccc1` (configuration not stated): inactive: -15.6%; for `CC(C)N(C(=O)Cn1c(SCC(=O)Nc2nccs2)nc2ccccc21)C(C)C`: inactive: -25.8%.
The same measure for `CSc1nc(N)nc2c1ncn2CC(=O)NCC(c1ccccc1)c1ccccc1`: inactive: -6.98%.
Next, `Cc1ccc2c(c1)C1CN(C)CCC1N2S(=O)(=O)c1ccccc1` (configuration not stated): inactive: 0.5%; `CC(C)[C@H](NC(=O)N1CCn2c1nc1ccccc12)C(=O)NCCc1ccccc1`: inactive: -15.7%.
As to `CN1CCC(N(C)c2ccc(C(N)=O)cc2[N+](=O)[O-])CC1`, the inhibition is inactive: -11.6%.
For the molecule `Cn1c(=O)c2c(ncn2CC(=O)Nc2ccccc2N2CCOCC2)n(C)c1=O`, the inhibition is inactive: -2.17%.
`CCc1cccc(CC)c1N(COC)C(=O)Cn1c(C(C)O)nc2ccccc21` (configuration not stated): the inhibition was inactive: 1.79%.
As to `FC(F)(F)c1nc2ccccc2n1CCNc1nc(CN2CCCCC2)cs1`, the inhibition was inactive: -6.79%.
For the molecule `Cc1ccc(OP(=O)(Nc2ccccn2)Oc2ccc(C)cc2)cc1`, the inhibition is inactive: -10.1%.
Next, `CC(=O)NC(SC(=S)N(CC(C)C)CC(C)C)C(Cl)(Cl)Cl` (configuration not stated): inactive: -0.67%; `CC(C(=O)Nc1ccc2c(c1)OCO2)n1cnc2c1c(=O)n(C)c(=O)n2C` (configuration not stated): inactive: 11%.
As for `Cn1c(=O)c2c(ncn2CC(=O)NC2CCCCC2)n(C)c1=O`, the inhibition was inactive: 18.1%.
The same measure for `COC(=O)c1cc2c(s1)N=C(c1ccccc1)N(C)P2(=O)N1CCOCC1` (configuration not stated): inactive: -8.89%.
As for `CC(C)NC(=O)Cn1cnc2c1c(=O)n(C)c(=O)n2C`, the inhibition was inactive: -0.81%.
The same measure for `Cc1sc2ncnc(NC3CCN(Cc4ccccc4)CC3)c2c1C`: inactive: -29.3%.
Consider `CC(/C=N/NC(=O)Cn1cnc2c1c(=O)n(C)c(=O)n2C)=C\c1ccco1`, for which the inhibition was inactive: 13%.
The same measure for `CCOCN(C(=O)Cn1c(CO)nc2ccccc21)c1c(C)cccc1CC`: inactive: -3.8%; for `Cc1nc2ccccc2n1CC(=O)NC1CCCC1`: inactive: -29.8%.
For `O=C(Cn1c2[n+](c3ccc(C(F)(F)F)cc31)CCCCC2)Nc1ccccc1`, the inhibition is inactive: -4.19%.
On to `Cc1ccc(Cn2nnnc2CN2CCC(n3nnc4ccccc43)CC2)cc1`, for which the inhibition was inactive: -2.52%.
Next, `O=c1oc2ccccc2c2c1ncn2CCN1CCOCC1`: inactive: -8.39%; `COc1ccc(OC)c(C(=O)CSc2nc3ccccc3n2CC(=O)NC(C)(C)C)c1`: inactive: -35%.
For `CCN(CC)CCn1c(NS(=O)(=O)c2ccc(Cl)cc2)nc2ccccc21`, the inhibition was inactive: -6.55%.
For the molecule `C[C@H]1OP(=O)(Oc2ccccc2)[C@H](O)[C@H](O)[C@H]1N=[N+]=[N-]` (some centres not stated), the inhibition is inactive: -2.69%.
The same measure for `Cc1cc2ncn(C3CC(=O)N(Cc4ccc(N5CCCC5=O)cc4)C3=O)c2cc1C` (configuration not stated): inactive: -4.51%; for `COc1ccccc1OCCSc1nc2ccccc2n1CC(N)=O`: inactive: -10.9%.
Consider `Cn1c(=O)c2c(ncn2CC(=O)N2CCOCC2)n(C)c1=O`, for which the inhibition was inactive: -21.7%.
Regarding `Cn1c(=O)c2c(ncn2CC(=O)Nc2nc(-c3ccc(F)c(F)c3)cs2)n(C)c1=O`, the inhibition was inactive: 6.56%.
The same measure for `O=P(Nc1nc2ccccc2s1)(c1ccccc1)c1ccccc1`: inactive: -2.44%.
Next, `N=c1n(CCN2CCCC2)c2ccccc2n1CC(O)c1ccco1` (configuration not stated): inactive: -41.5%; `Cn1c(=O)n(CC(=O)Nc2cccnc2)c2ccccc21`: inactive: -31.8%; `CC(C)N(C(=O)Cn1c(SCC(=O)NC2CC2)nc2ccccc21)C(C)C`: inactive: -3.24%.
Next, `CCN(CC)CCn1c(NCc2ccccn2)nc2ccccc21`: inactive: 8.83%.
For `CCN(CC)CCn1c(N)nc2ccccc21`, the inhibition was inactive: 1.7%.
The same measure for `Cc1ccc(C(C(=O)NC2CCCCC2)N(Cc2ccco2)C(=O)Cn2cnc3ccccc32)cc1` (configuration not stated): inactive: -33.6%.
The same measure for `CC(O)CNc1nc2ccccc2n1CC(=O)NCC(F)(F)F` (configuration not stated): inactive: -0.41%; for `O=C(CSc1nc2ccccc2n1CC(=O)N1CCCC1)N1CCN(C(=O)c2ccco2)CC1`: inactive: 15%.
Turning to `C[C@H](NC(=O)N1CCn2c1nc1ccccc12)C(=O)NCCc1ccccc1`, the inhibition was inactive: -5.22%.
Next, `CCC(=O)Nc1ccc(NC(=O)/C=C/c2ccc(Cl)cc2)cc1`: inactive: 13.5%; `NC(=O)Cn1c2[n+](c3ccccc31)CC(O)CS2` (configuration not stated): inactive: 3.73%.
The same measure for `CCN(CC)CCn1c(=N)n(CC(=O)c2ccc(C)cc2)c2ccccc21`: inactive: -38.5%.
As for `O=P(Nc1ccccn1)(c1ccc(Br)cc1)c1ccc(Br)cc1`, the inhibition was inactive: -12.8%.
The same measure for `O=C(Cn1cnc2ccccc21)Nc1ccc2c(c1)OCCCO2`: inactive: -20.9%; for `COC(=O)[C@H](CC(C)C)NC(=O)Cn1cnc2c(NCc3ccccc3)ncnc21`: inactive: -0.5%.
As for `Cc1nnc(NC(=O)Cn2cnc3c2c(=O)n(C)c(=O)n3C)s1`, the inhibition is inactive: 36.2%.
The same measure for `COc1ccc(N)c([N+](=O)[O-])c1[N+](=O)[O-]`: inactive: -5.66%.
Next, `CC(C)(C)NC(=O)Cn1c(Cl)nc2ccccc21`: inactive: 4.69%; `Cc1ccc(/C=N/NC(=O)Cn2cnc3c2c(=O)n(C)c(=O)n3C)s1`: inactive: 13.7%; `c1ccc2c(c1)nc(NCc1ccc3c(c1)OCO3)n2CCN1CCOCC1`: inactive: -8.89%.
In the case of `CSc1ccccc1NC(=O)Cn1c(-c2cscn2)nc2ccccc21`, the inhibition is inactive: -3.03%.
Take `O=C(Cn1cnc2ccccc21)N/N=C/c1ccccn1`: the inhibition is inactive: 7.45%.
On to `CC(O)c1nc2ccccc2n1CC(=O)Nc1ccc2c(c1)OCCO2` (configuration not stated), for which the inhibition was inactive: 14.1%.
The same measure for `CSCC[C@H](NC(=O)N1CCn2c1nc1ccccc12)C(=O)NCC1CCCO1` (some centres not stated): inactive: -1.3%; for `O=C(Nc1cccc(F)c1)N1CCC(n2c(=O)[nH]c3ccccc32)CC1`: inactive: -8.4%; for `O=C(Cn1cnc2c(OCc3ccccc3)ncnc21)NCc1nc2ccccc2[nH]1`: inactive: 3.54%.
The same measure for `O=C(OC1CN2CCC1CC2)c1cccc(Cl)c1` (configuration not stated): inactive: -11%; for `CCn1c(N)[n+](CC(=O)Nc2ccc(SC(F)F)cc2)c2ccccc21`: inactive: 5.31%; for `COc1ccc(N2C(=O)CC(N3CCC(n4c(=O)[nH]c5ccccc54)CC3)C2=O)cc1` (configuration not stated): inactive: -2.59%.
Regarding `CC(C)C[C@H](NC(=O)N1CCn2c1nc1ccccc12)C(=O)N[C@@H](Cc1ccccc1)C(=O)O`, the inhibition is inactive: -17%.
The same measure for `O=C(Cn1c(CC(=O)N2CCCC2)nc2ccccc21)NCc1ccccc1`: inactive: 8.81%.
The same measure for `COCCOC(=O)C1=C(C)N=C2SCCC(=O)N2C1/C=C/c1ccccc1` (configuration not stated): inactive: 9.78%; for `Cc1ccc2c(c1)C1CN(C)CCC1N2C(=O)/C=C/c1ccc2c(c1)OCO2` (configuration not stated): inactive: -9.44%; for `COc1cc(C(=O)OCCn2c(=O)c3c(ncn3CCN(C)C)n(C)c2=O)cc(OC)c1OC`: inactive: -8.66%.
For `CSCC[C@H](NC(=O)N1CCn2c1nc1ccccc12)C(=O)NCc1ccc(F)cc1`, the inhibition is inactive: 20.4%.
Next, `Nc1ccc([As](=O)(O)c2ccc([N+](=O)[O-])cc2)cc1`: inactive: 19%.
Next, `N=c1n(CCO)c2ccccc2n1CCN1CCCCC1`: inactive: 7.27%; `COc1ccc(C(=O)N2CCn3c2nc2ccccc23)cc1`: inactive: -25.2%.
Next, `C(Cc1nn[nH]n1)Cc1nn[nH]n1`: inactive: 18%.
As for `O=C(Nc1ccccc1Cl)N1CCn2c(nc3ccccc32)C1`, the inhibition is inactive: -7.03%.
Next, `COc1ccc(CCNC(=O)Cn2cnc3c2c(=O)n(C)c(=O)n3C)cc1OC`: inactive: 14.1%; `Cn1c(=O)[nH]c(=O)c2c1nc(CN(Cc1ccccc1)Cc1ccccc1)n2CCN1CCOCC1`: inactive: -8.09%.
As for `CN(C)C(=O)Cn1c(SCC(=O)NC2CCCCC2)nc2ccccc21`, the inhibition is inactive: -2.94%.
For `CC(=O)Nc1ccc2c(c1)nc1n2CCN(C(C)c2ccccc2)C1` (configuration not stated), the inhibition is inactive: -8.28%.
For `Cc1nc2ccc(S(=O)(=O)NC(C(=O)N3CCn4c3nc3ccccc34)C(C)C)cc2s1` (configuration not stated), the inhibition was inactive: -1.38%.
Next, `CCN(CC)CCn1c(NC(=O)c2ccccc2O)nc2ccccc21`: inactive: 30.9%.
For `CC1CCCC(NC(=O)Cn2c(Cl)nc3c2c(=O)n(C)c(=O)n3C)C1C` (configuration not stated), the inhibition was inactive: -17.1%.
Next, `O=[As](O)(c1ccccc1)c1ccc(O)cc1`: inactive: -9.55%.
Next, `O=C(Cn1cnc2c(NCc3ccccc3)ncnc21)NCc1ccccc1`: inactive: 7.03%; `CCOc1ccc(NC(=O)N2CCC(n3c(=O)[nH]c4ccccc43)CC2)cc1`: inactive: -24.7%.
For `CS(=O)(=O)Cc1nc2ccccc2n1CC(=O)Nc1cccc(S(=O)(=O)N2CCCC2)c1`, the inhibition was inactive: -7.19%.
As for `O=C(Cn1c(=O)n(CC2CS2)c2ccccc21)N1CCCCC1` (configuration not stated), the inhibition was inactive: -0.39%.
Next, `Cc1nc2cc(C(F)(F)F)ccc2n1C1CCN(Cc2nnnn2Cc2cccs2)CC1`: inactive: 5.48%; `COCC(C)NC(=O)Cn1c(SCc2ccccc2)nc2ccccc21` (configuration not stated): inactive: -13.2%; `N=c1n(CCN2CCOCC2)c2ccccc2n1CC(=O)c1ccc(Cl)c(Cl)c1`: inactive: 3.65%.
Next, `CCn1nccc1C(=O)Nc1nc2ccccc2n1CCN1CCCCC1`: inactive: -38.5%.
The same measure for `O=C(Cn1cnc2c(OCc3ccccc3)ncnc21)NCc1ccc2[nH]ccc2c1`: inactive: -23.3%; for `O=[N+]([O-])c1ncn(CCn2cnc([N+](=O)[O-])n2)n1`: inactive: -23.5%.
`CC(=O)NC(SC(=S)N(C)C)C(Cl)(Cl)Cl` (configuration not stated): the inhibition was inactive: -4.47%.
In the case of `CCOC(=O)C1=C(Cn2cnc3ccccc32)NC(=O)NC1c1cc(C)ccc1C` (configuration not stated), the inhibition was inactive: 17.3%.
With `O=[N+]([O-])c1ccc(O)c(/C=N/Nc2ccc([N+](=O)[O-])cc2[N+](=O)[O-])c1`, the inhibition is inactive: -9.58%.

Values taken from PubChem BioAssay AID504634 (The Scripps Research Institute Molecular Screening Center, 2011).
